Earlier results as cited in patent publication US20250041300A1, “PHARMACEUTICAL COMBINATION COMPRISING ABEMACICLIB AND A PI3K AND/OR A MTOR INHIBITOR FOR THE TREATMENT OF MANTLE CELL LYMPHOMA” (Board of Regents, The University of Texas System, priority 2021, published 2025).

Sequences of proteins named here, by UniProt entry; tags and fusion partners are left off. A change or cut given only in a name is not applied to a line headed by its entry.
UniProt P42336, whole entry: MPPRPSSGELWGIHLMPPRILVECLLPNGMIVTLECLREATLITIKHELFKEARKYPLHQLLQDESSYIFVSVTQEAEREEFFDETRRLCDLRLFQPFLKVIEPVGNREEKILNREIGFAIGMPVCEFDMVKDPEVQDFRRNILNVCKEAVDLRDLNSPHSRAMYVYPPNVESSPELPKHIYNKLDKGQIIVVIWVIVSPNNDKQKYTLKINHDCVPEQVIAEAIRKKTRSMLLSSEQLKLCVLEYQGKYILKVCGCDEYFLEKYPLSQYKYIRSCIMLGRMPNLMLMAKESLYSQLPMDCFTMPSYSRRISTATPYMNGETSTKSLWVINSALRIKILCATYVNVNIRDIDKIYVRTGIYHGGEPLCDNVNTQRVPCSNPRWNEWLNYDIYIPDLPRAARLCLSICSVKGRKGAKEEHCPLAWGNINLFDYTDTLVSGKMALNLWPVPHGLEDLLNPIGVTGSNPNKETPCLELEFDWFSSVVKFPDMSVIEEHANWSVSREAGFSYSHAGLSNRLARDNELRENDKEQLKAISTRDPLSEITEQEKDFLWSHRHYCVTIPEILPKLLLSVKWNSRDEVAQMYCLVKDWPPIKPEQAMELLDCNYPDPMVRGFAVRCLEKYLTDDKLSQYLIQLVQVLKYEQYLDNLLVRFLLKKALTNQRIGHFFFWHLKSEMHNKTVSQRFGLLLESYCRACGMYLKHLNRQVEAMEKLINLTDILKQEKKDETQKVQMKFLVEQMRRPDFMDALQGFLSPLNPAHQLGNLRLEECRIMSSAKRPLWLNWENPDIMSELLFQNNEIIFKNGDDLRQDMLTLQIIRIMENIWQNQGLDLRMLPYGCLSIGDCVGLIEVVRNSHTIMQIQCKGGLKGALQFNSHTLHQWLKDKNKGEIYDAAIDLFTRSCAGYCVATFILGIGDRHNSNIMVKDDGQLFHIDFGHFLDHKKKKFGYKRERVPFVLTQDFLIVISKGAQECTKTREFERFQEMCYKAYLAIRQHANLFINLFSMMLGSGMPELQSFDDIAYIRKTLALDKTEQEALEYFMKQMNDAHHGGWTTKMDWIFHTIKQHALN
UniProt O00329: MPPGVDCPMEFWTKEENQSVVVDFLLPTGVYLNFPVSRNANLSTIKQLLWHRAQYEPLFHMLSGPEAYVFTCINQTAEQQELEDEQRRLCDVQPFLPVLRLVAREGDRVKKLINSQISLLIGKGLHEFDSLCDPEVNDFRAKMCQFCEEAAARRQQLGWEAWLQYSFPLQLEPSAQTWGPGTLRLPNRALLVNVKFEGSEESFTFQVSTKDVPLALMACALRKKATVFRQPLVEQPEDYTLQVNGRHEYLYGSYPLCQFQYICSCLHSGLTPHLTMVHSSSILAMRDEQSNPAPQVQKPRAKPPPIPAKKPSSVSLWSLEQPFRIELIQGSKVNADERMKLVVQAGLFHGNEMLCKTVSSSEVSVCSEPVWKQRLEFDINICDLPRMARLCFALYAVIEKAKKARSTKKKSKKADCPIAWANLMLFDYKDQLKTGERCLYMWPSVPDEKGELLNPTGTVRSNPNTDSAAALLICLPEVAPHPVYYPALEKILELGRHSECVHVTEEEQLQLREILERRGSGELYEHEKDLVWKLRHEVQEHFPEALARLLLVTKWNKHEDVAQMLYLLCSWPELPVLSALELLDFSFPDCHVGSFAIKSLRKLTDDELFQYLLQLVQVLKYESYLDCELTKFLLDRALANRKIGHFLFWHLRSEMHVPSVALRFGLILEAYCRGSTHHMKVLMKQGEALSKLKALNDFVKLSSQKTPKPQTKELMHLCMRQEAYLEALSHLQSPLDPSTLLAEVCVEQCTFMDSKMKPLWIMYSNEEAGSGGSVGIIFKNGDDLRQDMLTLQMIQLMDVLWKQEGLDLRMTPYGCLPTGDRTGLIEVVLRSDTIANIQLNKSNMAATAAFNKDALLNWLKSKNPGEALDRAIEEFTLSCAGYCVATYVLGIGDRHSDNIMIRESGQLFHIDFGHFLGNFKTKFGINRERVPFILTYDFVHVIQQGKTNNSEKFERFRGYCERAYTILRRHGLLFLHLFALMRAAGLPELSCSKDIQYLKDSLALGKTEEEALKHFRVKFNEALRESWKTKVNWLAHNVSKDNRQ
UniProt P42338: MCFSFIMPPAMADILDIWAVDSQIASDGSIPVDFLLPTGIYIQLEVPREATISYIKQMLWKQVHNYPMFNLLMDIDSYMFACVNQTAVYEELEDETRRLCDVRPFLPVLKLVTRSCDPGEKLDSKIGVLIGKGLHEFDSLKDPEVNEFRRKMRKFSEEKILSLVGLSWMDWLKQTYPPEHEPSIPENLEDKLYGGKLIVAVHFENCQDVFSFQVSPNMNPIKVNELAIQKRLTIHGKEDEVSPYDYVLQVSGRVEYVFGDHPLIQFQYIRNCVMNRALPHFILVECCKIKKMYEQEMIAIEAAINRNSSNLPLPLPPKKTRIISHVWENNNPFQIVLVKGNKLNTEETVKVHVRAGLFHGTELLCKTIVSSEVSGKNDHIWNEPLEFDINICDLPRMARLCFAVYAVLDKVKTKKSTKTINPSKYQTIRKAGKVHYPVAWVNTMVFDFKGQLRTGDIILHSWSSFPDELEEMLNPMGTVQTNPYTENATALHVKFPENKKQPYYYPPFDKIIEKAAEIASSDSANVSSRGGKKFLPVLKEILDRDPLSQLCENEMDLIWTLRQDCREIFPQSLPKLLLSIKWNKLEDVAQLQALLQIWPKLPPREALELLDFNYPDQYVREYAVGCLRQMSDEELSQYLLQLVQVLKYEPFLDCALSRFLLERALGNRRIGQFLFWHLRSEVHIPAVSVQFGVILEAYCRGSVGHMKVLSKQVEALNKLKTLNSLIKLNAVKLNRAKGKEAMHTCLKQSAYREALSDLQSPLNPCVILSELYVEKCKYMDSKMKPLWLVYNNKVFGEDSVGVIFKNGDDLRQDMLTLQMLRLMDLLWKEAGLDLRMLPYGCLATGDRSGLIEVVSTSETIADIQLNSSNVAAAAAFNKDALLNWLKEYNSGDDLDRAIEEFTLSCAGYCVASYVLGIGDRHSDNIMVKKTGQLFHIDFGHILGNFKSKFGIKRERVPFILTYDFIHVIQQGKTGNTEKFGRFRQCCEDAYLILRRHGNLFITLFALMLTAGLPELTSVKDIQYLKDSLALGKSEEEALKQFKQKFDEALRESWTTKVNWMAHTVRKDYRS

What was measured:
Conditions in all cases: cited from earlier work
[1] = biological target: PI3Kα (Homo sapiens, UniProt P42336)
[2] = biological target: PI3Kδ (Homo sapiens, UniProt O00329)
[3] = biological target: PI3Kβ (Homo sapiens, UniProt P42338)

Cc1nc(-c2cn3c(n2)-c2ccc(-c4cnn(C(C)(C)C(N)=O)c4)cc2OCC3)n(C(C)C)n1 [Taselisib, 2-methyl-2-[4-[2-(5-methyl-2-propan-2-yl-1,2,4-triazol-3-yl)-5,6-dihydroimidazo[1,2-d][1,4]benzoxazepin-9-yl]pyrazol-1-yl]propanamide]
IC50 against PI3Kα (order of magnitude in words) [1]: nanomolar
IC50 against PI3Kδ (order of magnitude in words) [2]: nanomolar

C[C@@H](Nc1cc(F)cc(F)c1)c1cc(C(=O)N(C)C)cc2c(=O)cc(N3CCOCC3)oc12 [AZD8186, 8-[(1R)-1-(3,5-difluoroanilino)ethyl]-N,N-dimethyl-2-morpholin-4-yl-4-oxochromene-6-carboxamide]
IC50 against PI3Kβ (order of magnitude in words) [3]: nanomolar
